Consider one substance from US9028669B2, “Process for producing reduced glutathione” (Kyowa Hakko Bio Co., Ltd., priority 2011, dated 2015).

The nature of this data set: Solubility of oxidized glutathione in water at each pH (HPLC quantification). It is filed as physicochemical. Conditions: for solubility (FIG. 1): 25° C. The protocol: A crystal of oxidized glutathione (monohydrate) was added to 100 ml of water and the mixture was stirred at 25° C. for 4 hr. After measurement of pH, the solution was separated and filtered, and the dissolved oxidized glutathione was quantified by high performance liquid chromatography (HPLC) under the following conditions. Then, the crystal of oxidized glutathione was added to 1 mol/L of aqueous sodium hydroxide solution, and the mixture was stirred for 4 hr or longer while glutathione crystal slightly remained undissolved. After measurement of pH, the solution was separated and filtered, and the concentration was measured in the same manner.
As the content, the concentration (g/L) of oxidized glutathione was quantified under the following HPLC conditions.
HPLC Conditions • column: Inertsil ODS-3 φ3×100 mm • column temperature: 35° C. • buffer: 3% methanol solution containing 0.2% sodium 1-heptanesulfonate, 6.8% potassium dihydrogen phosphate (adjusted to pH 3.0 with phosphoric acid) • flow rate: 0.5 mL/min • detector: UV detector (wavelength 210 nm)

Turning to oxidized glutathione, the “solubility (FIG. 1)” value is, setting by setting: (at not less than pH 4.0 (pH raised with sodium hydroxide)) “remarkably increased”; (solution at pH 2.0-3.0 near the isoelectric point) “lowest”. Besides, the “saturated solubility of oxidized glutathione in water” value (at the isoelectric point, in water at ambient temperature (25° C.)) is on record as “not more than 20 g/L”.
